By UniProt entry, the sequences of proteins in these tests, tags left out.
UniProt P25104, whole entry: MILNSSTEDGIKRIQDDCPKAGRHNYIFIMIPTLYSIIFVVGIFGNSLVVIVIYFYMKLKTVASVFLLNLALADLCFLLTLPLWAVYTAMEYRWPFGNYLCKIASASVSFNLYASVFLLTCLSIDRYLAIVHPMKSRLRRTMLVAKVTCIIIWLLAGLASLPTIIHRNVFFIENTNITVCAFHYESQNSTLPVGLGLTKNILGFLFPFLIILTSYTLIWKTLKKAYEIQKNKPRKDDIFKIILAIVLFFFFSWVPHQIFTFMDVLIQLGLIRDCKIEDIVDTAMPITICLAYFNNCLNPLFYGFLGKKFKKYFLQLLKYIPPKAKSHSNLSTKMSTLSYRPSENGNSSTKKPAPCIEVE

According to patent US20070105096A1:

Biological target: type I angiotensin II receptor (AT1), bovine (bovine) (UniProt P25104)
Assay: cell-based or functional assay

Renilla reniformis luciferase activity (CRE reporter), host GBCRC6 with pAGal9-AT1: 132 fold
Substance: human angiotensin II (manufactured by Bachem) (from UniProt P01019 25-476) (peptide)
